Laboratory results reported in BindingDB's records for doi:10.1021/acs.jmedchem.5b02042 (University of South Florida, 2016).

Sequences of proteins named here, by UniProt entry; tags and fusion partners are left off.
UniProt P48061, whole entry: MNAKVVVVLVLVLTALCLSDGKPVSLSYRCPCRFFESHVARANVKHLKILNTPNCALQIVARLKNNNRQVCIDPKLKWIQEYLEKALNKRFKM

Biological target: Stromal cell-derived factor 1 (Homo sapiens, UniProt P48061)
Test: Binding affinity to His6-SUMO fusion tagged wild type human [U-15N]CXCL12 expressed in Escherichia coli by 2D 1H-15N HMQC NMR spectroscopy

- Kd: 4.1 mM
SMILES: Cc1ccc(NS(=O)(=O)c2ccc(OCC(=O)O)c(C)c2)cc1C
